Test results as given in patent publication US10226478B2, “Dosage regimen for sapacitabine and decitabine in combination for treating acute myeloid leukemia” (Cyclacel Limited, priority 2011, dated 2019).

Tested on: HL60 cells
Assay: Cell cycle analysis (propidium iodide, flow cytometry)
Assay type: cell-based
Settings: for cells in sub-G1: by 72 hours, azacitidine 128 nM (24 h pretreatment), CNDAC 133 nM
Procedure: For combination analysis, cells were treated with azacitidine for 24 hours followed by a further 48 or 72 hours with azacitidine and CNDAC. For controls, single agent treatments for each drug were also performed. At the end of the incubation, cells were harvested by washing twice in PBS and fixation in 70% ethanol and storage at −20° C. Prior to analysis cells were washed twice in PBS containing 1% BSA followed by staining with propidium iodide (50 μg/ml) and ribonuclease A (50 μg/ml) in PBS containing 0.1% Triton X-100 and the cell cycle profile was determined by flow cytometry.

| SMILES | cell cycle profile (by 48 hours of CNDAC 133 nM) | cells in sub-G1 [%] | cell cycle profile (azacitidine 128 nM alone, 72 and 96 hours exposure) |
| --- | --- | --- | --- |
| N#C[C@H]1[C@H](O)[C@@H](CO)O[C@H]1n1ccc(N)nc1=O [CNDAC, 1-(2-C-Cyano-2-deoxy-β-D-arabino-pentafuranosyl)-cytosine] | accumulation of cells in G2/M | 7 |  |
| Nc1ncn([C@@H]2O[C@H](CO)[C@@H](O)[C@H]2O)c(=O)n1 [azacitidine, 4-amino-1-β-D-ribofuranosyl-s-triazin-2(1H)-one] |  | 9 | accumulation of cells in sub-G1, G2/M, and >G2/M |
